Test results: US20090081786A1, “Peptide sequences for modulation of protein kinase C” (priority 2006, published 2009)

System: δ-PKC
Assay: PMA-induced translocation of δ-PKC from soluble to particulate fraction in CHO cells
Assay type: cell-based, hamster
Conditions: 1 μM peptide pretreatment, 5 minutes of PMA stimulation
Protocol: The CHO cells of Example 1 were fractionated, stimulated, and washed with cold PBS, scraped in homogenization buffer, and spun at 100,000 g for 30 min at 4° C., resulting in the soluble fraction. The pellet was then resuspended in a homogenization buffer with 1% TRITON X-100, and spun under the same conditions. Where applicable, the cells were pre-incubated with 1 μM peptide for 15 minutes prior to stimulation. The samples were then analyzed using a Western blot, and the loading was corrected for protein concentration using an internal control such as actin.

“EpAnxV: pAnxV in which the arginine in annexin V was replaced with the glutamate found in δ-PKC (SEQ ID NO:33) (YGRKKRRQRRRCCLQANEDPD; listed as Homo sapiens)” was tested, and the “PMA-induced translocation of δ-PKC to the particulate fraction” value was “inhibitory effect on δ-PKC translocation was lost; also recorded: did not inhibit”.

“Also recorded” adds a separate entry of the source.
